Source: article PMC6541264, “Molecular mechanisms involved in drug-induced liver injury caused by urate-lowering Chinese herbs: A network pharmacology study and biology experiments” (PLoS ONE, 2019)

Tests used:
L-02 cells [1] = experiment: MTT assay, cell viability of L-02 cells; format: cell-based, human; details: for cells viabilityrate: L-02, MTT, 24 h
Description: (§1) The normal hepatic cell (L02) cell lines were obtained from the National Infrastructure of Cell Line Resources (Chinese Academy of Medical Sciences, Beijing, China), and maintained in Dulbecco’s modified Eagle’s medium (DMEM, 10-013-CVR) supplemented with 10% fetal bovine serum (FBS, Hyclone), 1% penicillin and streptomycin (PS, 100 IU/ml penicillin, 100 μg/ml streptomycin, Mediatech, 30-002-CI). All cells were incubated in a humidified atmosphere at 37°C with 5% CO2.
L-02 cells were trypsinized by 0.25% trypsin after reaching the confluence of 70–80% and plated in 96-well plates at the density of 1.6 × 10^3 […]. And L-02 cells were cultured for 24 hours in vitro before exposure to varying concentrations of different representative compounds with liver injury for further incubating in another 24 hours. Then, 20 μl of 0.25 mg/ml3-(4,5-dimethylthiazol-2-yl)-2,5-diphenyltetrazolium bromide (MTT)-tetrazolium salts (Sigma-Aldrich Corp., St. Louis, MO, USA) in PBS was added to each hole in 96-well plates. After 4 hours of incubation, the formazan crystals were dissolved by 150μl Dimethyl Sulphoxide (DMSO), and shocked to dissolve thoroughly, then the cell viability was measured by MTT method at 570 nm. All experiments were repeated in triplicate independently.

L-02 cells [2] = experiment: Biochemical indicators of hepatotoxicity (ALT, AST, LDH, ALP activity) of L-02 cells, without and with p38 inhibitor SB203580; format: cell-based, human
Description: as §1
To determine how potential liver injury-compounds affected biochemical indicators of L-02 cells, we investigated the activities of AST, ALT, LDH and ALP in cell migration capacity under the different representative compounds conditions (representative compounds group), the inhibitor conditions (inhibitor group), and the negative control. For these experiments, three replicates were made for each concentration of the different representative compounds with liver injury, and each group was established three holes and cultured in 6 times repeatedly. L02 cells were settled into 24-well plate at concentrations of 1.6 × 10^3 per well for 24h and then treated with the concentrations that had been determined by MTT method of the representative candidate liver injury compounds for another 24 h. Subsequently, the supernatant extraction of L02 cells was collected and centrifuged to detect the activities of AST, ALT, LDH, and ALP by chromatometry method.
To further and fully elucidating the mechanism of the liver injury caused by the representative compounds from urate-lowering Chinese herbs, we chose the p38α inhibitor, SB203580 to verify our findings. Seemingly, the ALT, AST, ALP, and LDH activities of each group decreased to varying degrees under the influence of inhibitor. The specific composition information was shown in S2 Table. […] The Specific specific composition information is was shown in S4 Table.

[3] = S2 Table, L-02, 5μmol/L+inhibitor (SB203580)
[4] = S2 Table, L-02, 5μmol/L, no inhibitor
[5] = S2 Table, L-02, 6μmol/L, no inhibitor
[6] = S2 Table, L-02, 7μmol/L+inhibitor (SB203580)
[7] = Table 5, L-02 supernatant, 24 h, 5μmol/L
[8] = Table 5, L-02 supernatant, 24 h, 6μmol/L
[9] = Table 5, L-02 supernatant, 24 h, 7μmol/L

Substance: Evodiamine
- cells viabilityrate (L-02 cells [1]; 5 μmol/L): 85.02± 15.70%
- cells viabilityrate (L-02 cells [1]; 6 μmol/L): 50.70± 37.42%
- cells viabilityrate (L-02 cells [1]; 7 μmol/L): 66.87± 11.58%
- cell viability of L-02 (MTT), in words (L-02 cells [1]; dose of 5μmol/L): good potency inhibitor against the cell viability
- ALP (L-02 cells [2]; [3]): 0.44±0.14 King's unit /100ml
- AST (L-02 cells [2]; [3]): 7.11±0.67 U/L
- LDH (L-02 cells [2]; [3]): 689.32±39.64 U/L
- ALP (L-02 cells [2]; [4]): 0.56± 0.14 King's unit /100ml
- ALT (L-02 cells [2]; [4]): 15.54± 0.25 U/L
- AST (L-02 cells [2]; [4]): 7.28± 0.12 U/L
- LDH (L-02 cells [2]; [4]): 681.23± 16.02 U/L
- ALT (L-02 cells [2]; S2 Table, L-02, 6μmol/L+inhibitor (SB203580)): 16.42±0.45 U/L
- ALP (L-02 cells [2]; [5]): 0.62±0.19 King's unit /100ml
- ALT (L-02 cells [2]; [5]): 16.42±0.66 U/L
- AST (L-02 cells [2]; [5]): 7.02±0.64 U/L
- LDH (L-02 cells [2]; [5]): 614.89±37.46 U/L
- ALP (L-02 cells [2]; [6]): 0.70±0.10 King's unit /100ml
- LDH (L-02 cells [2]; [6]): 726.54±47.95 U/L
- ALP (L-02 cells [2]; [7]): 15.54±0.25 King's unit /100ml
- ALT (L-02 cells [2]; [7]): 7.07±0.38 U/L
- AST (L-02 cells [2]; [7]): 658.98±40.96 U/L
- LDH (L-02 cells [2]; [7]): 0.50±0.16 U/L
- ALP (L-02 cells [2]; [8]): 16.42±0.66 King's unit /100ml
- ALT (L-02 cells [2]; [8]): 6.74±0.73 U/L
- AST (L-02 cells [2]; [8]): 597.09±44.76 U/L
- LDH (L-02 cells [2]; [8]): 0.57±0.17 U/L
- ALP (L-02 cells [2]; [9]): 16.42±0.87 King's unit /100ml
- ALT (L-02 cells [2]; [9]): 6.22±1.15 U/L
- AST (L-02 cells [2]; [9]): 612.86±52.77 U/L
- LDH (L-02 cells [2]; [9]): 0.49±0.23 U/L
